This note sets out measurements from publication PMC10033663, “Acute pharmacological profile of 2C-B-Fly-NBOMe in male Wistar rats—pharmacokinetics, effects on behaviour and thermoregulation” (Frontiers in Pharmacology, 2023).

A short description of the data set: Solubility on preparing the dosing solution. The conditions noted are these: highest dose; deionized water and 20 μl of Tween 20.

For `COc1ccccc1CNCCc1c2c(c(Br)c3c1OCC3)OCC2` [2C-B-Fly-NBOMe], the solubility result is “poor solubility”.
